Source: ChEMBL document CHEMBL5321216, “Discovery of bipyridine amide derivatives targeting pRXRα-PLK1 interaction for anticancer therapy” (Eur J Med Chem, 2023)

Tests used:
[1] = Selectivity index, ratio of IC50 for human L02 cells to IC50 for human MDA-MB-231 cells; type: toxicity; settings: L02 cells versus MDA-MB-231 cells, read-out: Ratio IC50
[2] = Selectivity index, ratio of IC50 for human MCF-10A cells to IC50 for human MDA-MB-231 cells; type: toxicity; settings: MCF-10A cells versus MDA-MB-231 cells, read-out: Ratio IC50
[3] = Selectivity index, ratio of IC50 for human HaCaT cells to IC50 for human MDA-MB-231 cells; type: toxicity; settings: HaCaT cells versus MDA-MB-231 cells, read-out: Ratio IC50
[4] = Selectivity index, ratio of IC50 for human HeLa cells to IC50 for human MDA-MB-231 cells; type: functional

O=C(/C=C/c1ccccc1)Nc1cc(-c2ccnc(N3CCC(CO)CC3)c2)ccn1
selectivity ratio [1]: 4
selectivity ratio [2]: 1160
selectivity ratio [3]: 3.19
Ratio IC50 [4]: 23.25
